Reference: patent US12453782B2, “Antibody-oligonucleotide conjugate” (priority 2018, dated 2025)

Test system: SK-BR-3 cells (HER2++)
Experiment: Cell killing / cell viability in SK-BR-3 cells
Format: cell-based, human
Conditions: for cell killing: SK-BR-3 (HER2++), treated alone
Text: Trastuzumab-(Cys-L-SO1861)^3,8(Lys-L-dianthin)^1,7 or trastuzumab-(Cys-L-SO1861)^3,8(Lys-S-dianthin)^1,7, were produced and tested for enhanced cell killing in SK-BR-3 (HER2^++) and MDA-MB-468 (HER2^−) cells as illustrated in FIG. 9.

| Substance | cell killing | cell growth inhibition (SK-BR-3, relatively high dose) |
| --- | --- | --- |
| trastuzumab-(L-SO1861)^3,8: trastuzumab conjugated to SO1861-EMCH via cysteines | not observed | – |
| Trastuzumab: HER2 targeting antibody | not observed | some effect on cell growth inhibition |
